PglD inh: PglD (C. jejuni) enzyme inhibition; purified PglD enzyme, DTNB colorimetric CoA detection; inhibition, % at 12.5 µM; 360,000 compounds, 0.098% hits; AID 602405; in the data active = inhibition above about 16%, passing the limit was not always enough
E-selectin induc: induces E-selectin expression in human endothelial cells; 260,000 compounds, 0.37% hits; activation, % at 7.58 µM; HUVEC E-selectin immunofluorescence imaging; normalized: neutral wells 0, TNF-alpha wells 100;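 active = mean E-selectin-positive cell signal at least 10% of the positive control, reached in at least 60% of replicates, without over 20% cell loss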
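Material: HUVEC primary endothelial cells; Amount: 3,000 cells per well; Dosing: single concentration; Medium: EGM-2 growth medium on 0.1% gelatin-coated wells; Read-out basis: percent E-selectin-positive cells; Signal: immunofluorescence imaging; Control set: TNF-alpha, DMSO.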
PGC1a acetyl inh: PGC1a acetylation modulation, inhibitor mode. AID 651687. U2OS PGC1a acetylation, AlphaScreen anti-acetyl-lysine; with virally co-expressed GCN5 acetyltransferase. inhibition, % at 15.6 µM. 350,000 compounds, 0.17% hits;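 active = every replicate shows inhibition of at least 40%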;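 also: 0% = neutral control wells and 100% = positive control wells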
UUG fidelity: yeast start codon fidelity modulation; AID 602363; activity score, % at 18.7 µM; S. cerevisiae UUG-firefly luciferase reporter, luminescence/redox ratio; 0.13% of 350,000 active;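 active means replicate mean at a twofold rise or more, about +100% in these data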;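 further: firefly luciferase made from a UUG start codon reports start codon fidelity; reporter light over untreated wells divided by growth signal over untreated wells; some hits fall short of that in this replicate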
Statin myotox sup: protects C2C12 myotubes from simvastatin toxicity; AID 602340; 330,000 compounds, 0.78% hits; ATP luminescence, 48 h; scaled: DMSO 0, geranylgeraniol control 100; rescue of ATP level, % at 7.49 µM;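 active = mean ATP rescue above about 67%, or every replicate alone reaching that limit, limit read from the data, passing the limit was not always enough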;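 also: myotubes were challenged with 10 µM simvastatin during compound exposure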
esBAF inh: blocks esBAF chromatin remodeling in mouse ES cells | Bmi1-luciferase knock-in reporter, 24 h; 100% = twice the neutral-well signal | reporter increase, % at 12.5 µM | 350,000 compounds, 2% hits; in the data active = activation above about 40%;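 also: 0% = median of the plate's neutral control wells and 100% = double that signal; a rise in the Bmi1 reporter signal indicates esBAF inhibition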
Numbers without * were called inactive; / = no result. Sampled rows, rich in hits. Any-hit rate of the full collection: about 2.8%.

canonical_smiles	PglD inh	E-selectin induc	PGC1a acetyl inh	UUG fidelity	Statin myotox sup	esBAF inh
O=C(c1ccc2c3n(nc2c1)-c1ccc(Cl)cc1CO3)N1CCOCC1	6	0	1	-19	-29	73*
Cc1ccc2c(c1)COc1c3ccc(C(=O)N[C@@H](CO)C(C)C)cc3nn1-2	-1	7	-4	-13	-35	73*
CC(C)NC(=O)c1ccc2c3n(nc2c1)-c1ccc(Cl)cc1CO3	-6	0	/	-14	-18	75*
CC(C)NC(=O)N(C)C[C@@H]1Oc2ccc(NC(=O)Nc3ccccc3)cc2CC(=O)N([C@H](C)CO)C[C@@H]1C	5	/	2	-9	2	4
OC[C@H]1[C@@H](c2ccc(C3=CCCC3)cc2)[C@H]2CN(CCC(F)(F)F)CCCCN21	0	/	-13	11	/	/
COc1ccc2c3c([nH]c2c1)[C@H](CO)N(C(=O)c1ccncc1)CC31CN(C(=O)CC2CC2)C1	/	0	3	/	/	/
COCCNC(=O)c1ccc2c3n(nc2c1)-c1ccc(C)cc1CO3	7	0	/	-8	3	80*
C[C@H](CO)N1C[C@H](C)[C@H](CN(C)S(=O)(=O)c2ccc(F)cc2)Oc2ncc(C#Cc3ccc(F)cc3)cc2C1=O	/	1	-14	/	17	/
CSc1ncccc1C(=O)OCc1ccccc1F	/	/	4	/	4	50*
CCN(CC)S(=O)(=O)c1ccc(-n2c(=O)c(C(C)C)c(C)n2C)cc1	10	4	-3	-20	87*	7
Cc1c(C(C)C)c(=O)n(-c2ccc(S(=O)(=O)NC(C)C)cc2)n1C	-1	/	-23	-14	-2	14
CC(/C=C/c1ccccc1)=N\NC(=S)NC(C)C	1	/	1	-35	-14	17
CC(/C=C/c1ccccc1)=N\NC(N)=S	7	/	-9	-26	-83	50*
C/C=C/c1cnc2c(c1)C(=O)N([C@@H](C)CO)C[C@@H](C)[C@H](CN(C)Cc1ccc3c(c1)OCO3)O2	-1	2	-8	-2	-2	-3
COc1cc(OC)cc(-c2noc(-c3csc([C@@H]4O[C@H](CO)[C@H](O)[C@H](O)[C@H]4O)n3)n2)c1	1	-2	11	-8	-7	-4
COc1cc(OC)cc(-c2noc(-c3csc([C@H]4C[C@H](O)[C@@H](CO)O4)n3)n2)c1	1	/	-8	5	0	71*
O=C([C@@H]1[C@@H](CO)[C@@H]2Cn3c(ccc(-c4cccnc4)c3=O)[C@H]1N2Cc1cccnc1)N1CCOCC1	5	0	/	-22	-1	1
O=C(COc1ccccc1C(=O)c1cnn(-c2ccccc2)c1)Nc1ccc2ccccc2c1	-5	-2	/	-24	4	82*
COc1ccc(O)c(C(=O)c2cnn(-c3ccccc3)c2)c1	-1	1	9	-12	17	53*
O=C(c1cnn(-c2ccccc2)c1)c1cc(F)ccc1O	2	0	0	-10	1	89*
COc1ccc(-n2cc(C(=O)c3ccc4ccccc4c3O)cn2)cc1	1	/	3	-16	4	3
O=C(c1cnn(-c2ccccc2)c1)c1ccccc1O	/	/	15	/	-2	18
O=C(C[C@H]1C[C@H]2c3cc(NC(=O)c4ccc5c(c4)OCO5)ccc3O[C@H]2[C@@H](CO)O1)NCc1ccccn1	-4	0	-2	/	1	4
CC1OC2CC(=O)OC2C2=C1C(=O)c1c(O)cccc1C2=O (configuration not stated)	6	/	78*	-78	-305	-85
O=C(C1CCOCC1)N1CC(=O)N2[C@H](CO)[C@H](c3ccc(C#Cc4cccc(F)c4)cc3)[C@@H]2C1	/	1	-11	/	/	/

Profiles, looked up by structure:
COc1ccc2c3c([nH]c2c1)[C@H](CO)N(C(=O)c1ccncc1)CC31CN(C(=O)CC2CC2)C1 is listed as PglD inh = /; E-selectin induc = 0; PGC1a acetyl inh = 3; UUG fidelity = /; Statin myotox sup = /; esBAF inh = /
Cc1ccc2c(c1)COc1c3ccc(C(=O)N[C@@H](CO)C(C)C)cc3nn1-2 is listed as PglD inh = -1; E-selectin induc = 7; PGC1a acetyl inh = -4; UUG fidelity = -13; Statin myotox sup = -35; esBAF inh = 73*
C/C=C/c1cnc2c(c1)C(=O)N([C@@H](C)CO)C[C@@H](C)[C@H](CN(C)Cc1ccc3c(c1)OCO3)O2 is listed as PglD inh = -1; E-selectin induc = 2; PGC1a acetyl inh = -8; UUG fidelity = -2; Statin myotox sup = -2; esBAF inh = -3

The results go on:
canonical_smiles	PglD inh	E-selectin induc	PGC1a acetyl inh	UUG fidelity	Statin myotox sup	esBAF inh
COc1cc2c(cc1NC(=O)C(F)(F)F)-c1ccc(NC(=O)C(F)(F)F)cc1C2	/	0	/	/	/	/
O=C(Nc1ccc2c(c1)Cc1cc([N+](=O)[O-])ccc1-2)C(F)(F)F	-3	0	-5	8	-35	42*
CCC12CC3CC(C1)CC(C(=O)NNC(N)=O)(C3)C2	3	0	13	-11	106*	1
Cn1c(=O)c2ccccc2n(CC(=O)NC2CCCCC2)c1=O	2	0	7	-8	8	2
Cn1c(=O)n(CC(=O)NC2CCCCC2)c(=O)c2ccccc21	2	/	-4	-19	72*	0
CO[C@@H]1CN(C)C(=O)c2cc(NC(=O)c3ccccc3F)ccc2OC[C@H](C)N(C)C[C@@H]1C	-2	0	-1	-13	12	2
CC1=C(C(=O)OC2CCCC2)C(c2ccc(C)o2)C2=C(CC(c3cccs3)CC2=O)N1 (configuration not stated)	4	2	-20	-7	102*	-9
CCCCCSc1nnc(C)c(=O)[nH]1	/	/	91*	/	/	/
COc1ccccc1C#Cc1cnc2c(c1)C(=O)N([C@H](C)CO)C[C@@H](C)[C@H](CN(C)C(=O)CN(C)C)O2	2	0	3	22	1	-3
COc1cc(/C=C2\SC(=S)N(NC(=O)c3ccc(O)c(OC)c3)C2=O)ccc1O	0	/	0	-10	102*	12
CCCNC(=O)N[C@H]1CC[C@@H](CC(=O)NC2CCCCC2)O[C@@H]1CO	1	0	3	-14	4	-7
Nc1c(C(=O)Nc2ccc3c(c2)OCCO3)nnn1Cc1cccc(Cl)c1	/	1	/	/	22	55*
Nc1c(C(=O)Nc2ccc3c(c2)OCCO3)nnn1Cc1ccccc1Cl	6	/	/	-15	-4	74*
Nc1c(C(=O)Nc2ccc3c(c2)OCCO3)nnn1Cc1ccc(F)cc1	-4	/	/	-5	4	96*
O=C(Nc1ccc2c(c1)OCCO2)c1ccc(CN2CCOCC2)cc1	-2	/	-2	-15	-31	56*
COc1ccc(Br)cc1Cn1nnc(C(=O)Nc2ccc3c(c2)OCCO3)c1N	5	/	/	-20	-14	13
COc1ccc(Cl)cc1NC(=O)c1nnn(CC(=O)Nc2ccc3c(c2)OCO3)c1N	2	3	/	-9	1	2
COc1ccccc1NC(=O)N1CC(=O)N2[C@H](CO)[C@@H](c3ccc(-c4cccc(C)c4)cc3)[C@@H]2C1	/	0	-8	/	/	/
O=C(NCC1CCCO1)c1c(O)c2ccccc2[nH]c1=O (configuration not stated)	-7	/	4	-3	-3	51*
O=c1[nH]c2ccccc2c(O)c1O	32*	/	-5	21	10	-4
O=C(NC1CCCCCC1)c1c(O)c2ccccc2[nH]c1=O	2	/	/	0	-6	46*
C[C@H]1CN([C@@H](C)CO)C(=O)c2cc(-c3ccccc3)cnc2O[C@@H]1CN(C)Cc1ccc(C(=O)O)cc1	2	0	-2	5	1	-2
